Legend:
[1] = tested on: p-IKKα levels in L363 (NIK translocated multiple myeloma) cells; experiment: Effect of compounds on p-IKKα levels in L363 cells (AlphaLISA SureFire Ultra); type: cell-based, human; conditions: read-out: Assay 2 IC50, BAFF stimulated, MG132, 6 h, average of values
Protocol: Biological Assay 2: Effect of Compounds on p-IKKα Levels in L363 (NIK Translocated Multiple Myeloma) Cells
All compounds tested were dissolved and serially diluted in DMSO, 1:3 dilution for 11 points in an Echo compatible plate. 100% DMSO is added to columns 12 and 24 of the plate to serve as high and low signal controls. This compound plate was used to spot 20 nl of compound or DMSO into a Greiner 384 well TC plate (781080). Final DMSO concentration was […] (v/v) in cell assays. Human L363 cells (ATCC) were cultured in RPMI 1640 medium supplemented with GlutaMax, non-essential amino acids, sodium pyruvate and 10% fetal bovine serum. Cells were routinely maintained at densities of 0.2×10^6 cells per ml −2×10^6 cells per ml at 37° C. in a humidified 5% CO2 atmosphere incubator. […] At the end of this incubation, lysed cells were sequentially treated and incubated with acceptor and donor bead mixes according to the manufacturer's protocol for a 1 plate/2-incubation suspension cell assay (AlphaLISA SureFire Ultra p-IKKα (Ser 176/180) Assay Kit (Perkin ElmeR). Plates were read using an EnVision® Multilabel Plate Reader (Perkin ElmeR). Within an experiment, a concentration response curve for each compound was run in duplicate. Signal obtained in the test wells was normalized using high signal (BAFF stimulated cells, DMSO, MG132) and low signal (unstimulated cells, DMSO) controls. […]

Protein sequences, listed by entry. Tags and fused reporters are not part of them.
UniProt Q99558, whole entry: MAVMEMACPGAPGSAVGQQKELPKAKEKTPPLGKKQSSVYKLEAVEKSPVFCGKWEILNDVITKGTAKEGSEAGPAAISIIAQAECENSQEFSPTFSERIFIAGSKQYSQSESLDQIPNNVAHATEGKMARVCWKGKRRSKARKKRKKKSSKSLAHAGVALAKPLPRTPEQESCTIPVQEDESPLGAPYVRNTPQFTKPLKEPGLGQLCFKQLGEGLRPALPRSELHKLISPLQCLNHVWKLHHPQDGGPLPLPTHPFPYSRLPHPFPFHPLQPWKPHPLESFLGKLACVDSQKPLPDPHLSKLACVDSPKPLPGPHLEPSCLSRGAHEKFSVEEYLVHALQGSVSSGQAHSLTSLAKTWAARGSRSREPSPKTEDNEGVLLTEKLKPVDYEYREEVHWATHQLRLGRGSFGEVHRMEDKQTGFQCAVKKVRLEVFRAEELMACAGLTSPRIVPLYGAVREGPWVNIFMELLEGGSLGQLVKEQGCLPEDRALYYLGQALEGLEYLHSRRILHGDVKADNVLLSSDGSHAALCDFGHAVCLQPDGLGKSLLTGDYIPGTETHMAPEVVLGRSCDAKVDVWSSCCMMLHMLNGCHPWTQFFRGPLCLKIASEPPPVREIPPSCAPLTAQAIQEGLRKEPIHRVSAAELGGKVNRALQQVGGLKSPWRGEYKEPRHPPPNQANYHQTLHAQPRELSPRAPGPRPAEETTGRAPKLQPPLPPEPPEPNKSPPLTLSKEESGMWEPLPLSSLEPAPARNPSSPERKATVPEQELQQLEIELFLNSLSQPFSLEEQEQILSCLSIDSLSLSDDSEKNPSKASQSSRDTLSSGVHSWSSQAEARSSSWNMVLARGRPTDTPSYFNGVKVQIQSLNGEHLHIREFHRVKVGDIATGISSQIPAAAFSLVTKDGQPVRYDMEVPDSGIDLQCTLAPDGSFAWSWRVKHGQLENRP

[2] = molecular target: Recombinant Human NF-Kappab-Inducing Kinase (NIK/MAP3K14) (Homo sapiens, UniProt Q99558); experiment: Inhibition of auto-phosphorylation of recombinant human NIK/MAP3K14 (AlphaScreen); type: biochemical; conditions: read-out: Assay 1 IC50, 5 microM ATP, 1 nM enzyme, 2 h at 25° C., average of values
Protocol: Biological Assay 1: Inhibition of Auto-Phosphorylation of Recombinant Human NF-Kappab-Inducing Kinase (NIK/MAP3K14) Activity (AlphaScreen®)
NIK/MAP3K14 auto-phosphorylation activity was measured using the AlphaScreen® ((αscreen) format (Perkin ElmeR). All compounds tested were dissolved in dimethyl sulfoxide (DMSO) and further dilutions were made in assay buffer. Final DMSO concentration was 0.7% (v/v) in assays. Assay buffer was 50 mM Tris pH 7.5 containing 1 mM EGTA (ethylene glycol tetraacetic acid), 1 mM DTT (dithiothreitol), 0.1 mM Na3VO4, 5 mM MgCl2, 0.01% Tween® 20. Assays were carried out in 384 well Proxiplates (Perkin ElmeR). Incubations consisted of compound, 5 microM Adenosine-5′-triphosphate (ATP), and 1 nM NIK/MAP3K14. Incubations were initiated by addition of GST-tagged NIK/MAP3K14 enzyme, carried out for 2 h at 25° C. and terminated by addition of stop buffer containing anti-phospho-IKK Ser176/180 antibody. Protein A Acceptor and Glutathione-donor beads were added before reading using an EnVision® Multilabel Plate Reader (Perkin ElmeR). Signal obtained in the wells was normalized using high (full enzyme activity, 0.7% DMSO) and low controls (no enzyme activity, 0.7% DMSO, no ATP). IC50's were determined by fitting a sigmoidal curve to % inhibition of control versus Log10 compound concentration.

Question: Which results are given for `CN1CC[C@@](O)(c2cc(-c3cccc(-c4ccc5c(n4)c(N)nn5C)c3)on2)C1=O`?
Answer: IC50 [1]: > 501 nM; IC50 [2]: 100 to 500 nM

— patent US20250282785A1, “PYRROLIDINONE DERIVATIVES AS INHIBITORS OF NF KAPPA B INDUCING KINASE” (priority 2022, published 2025)
